Laboratory results taken from the supplement of paper PMC5998384.

Legend:
HeLa Kyoto [1] = experiment: thermal stability score vs G1/S (z-score of summed log2 fold changes over temperatures); higher = more thermally stable than in G1/S
HeLa Kyoto [2] = experiment: solubility in G1/S (NP-40 vs SDS abundance) (log2 ratio); higher = more soluble; conditions: cell cycle stage: G1/S
HeLa Kyoto [3] = experiment: solubility change mitosis vs G1/S (difference of NP-40 vs SDS log2 ratios) (log2 ratio difference); higher = more soluble in mitosis
HeLa Kyoto [4] = experiment: melting temperature (median over replicates), in situ; higher = more thermally stable
[5] = cell cycle stage: early G1 (4.5 h after nocodazole release)
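Throughout, for melting temperature (median over replicates), in situ: HeLa Kyoto cells synchronized by double thymidine or nocodazole block, proteins quantified by TMT10plex mass spectrometry, three independent biological replicates.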
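Throughout, for solubility change mitosis vs G1/S (difference of NP-40 vs SDS log2 ratios): synchronized HeLa Kyoto cells (double thymidine block for G1/S, nocodazole release for mitosis), protein amounts in NP-40 versus SDS lysates quantified by mass spectrometry, three biological replicates.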
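Throughout, for solubility in G1/S (NP-40 vs SDS abundance): HeLa Kyoto cells arrested at G1/S by double thymidine block, proteins quantified by TMT10plex mass spectrometry in mild NP-40 versus SDS extracts, three biological replicates.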
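Throughout, for thermal stability score vs G1/S (z-score of summed log2 fold changes over temperatures): synchronized HeLa Kyoto cells, proteins quantified by TMT10plex mass spectrometry, three biological replicates, mitosis taken 0.5 h after nocodazole release, G1/S directly after double thymidine block.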

| Sequence | thermal stability score (HeLa Kyoto [1]; [5]) | thermal stability score (HeLa Kyoto [1]; cell cycle stage: mitosis) | solubility in G1/S (log2) (HeLa Kyoto [2]) | solubility change mitosis (log2) (HeLa Kyoto [3]) | melting temperature (HeLa Kyoto [4]; cell cycle stage: G1/S) [°C] | melting temperature (HeLa Kyoto [4]; cell cycle stage: mitosis) [°C] |
| --- | --- | --- | --- | --- | --- | --- |
| MEEGGRDKAPVQPQQSPAAAPGGTDEKPSGKERRDAGDKDKEQELSEEDKQLQDELEMLVERLGEKDTSLYRPALEELRRQIRSSTTSMTSVPKPLKFLRPHYGKLKEIYENMAPGENKRFAADIISVLAMTMSGERECLKYRLVGSQEELASWGHEYVRHLAGEVAKEWQELDDAEKVQREPLLTLVKEIVPYNMAHNAEHEACDLLMEIEQVDMLEKDIDENAYAKVCLYLTSCVNYVPEPENSALLRCALGVFRKFSRFPEALRLALMLNDMELVEDIFTSCKDVVVQKQMAFMLGRHGVFLELSEDVEEYEDLTEIMSNVQLNSNFLALARELDIMEPKVPDDIYKTHLENNRFGGSGSQVDSARMNLASSFVNGFVNAAFGQDKLLTDDGNKWLYKNKDHGMLSAAASLGMILLWDVDGGLTQIDKYLYSSEDYIKSGALLACGIVNSGVRNECDPALALLSDYVLHNSNTMRLGSIFGLGLAYAGSNREDVLTLLLPVMGDSKSSMEVAGVTALACGMIAVGSCNGDVTSTILQTIMEKSETELKDTYARWLPLGLGLNHLGKGEAIEAILAALEVVSEPFRSFANTLVDVCAYAGSGNVLKVQQLLHICSEHFDSKEKEEDKDKKEKKDKDKKEAPADMGAHQGVAVLGIALIAMGEEIGAEMALRTFGHLLRYGEPTLRRAVPLALALISVSNPRLNILDTLSKFSHDADPEVSYNSIFAMGMVGSGTNNARLAAMLRQLAQYHAKDPNNLFMVRLAQGLTHLGKGTLTLCPYHSDRQLMSQVAVAGLLTVLVSFLDVRNIILGKSHYVLYGLVAAMQPRMLVTFDEELRPLPVSVRVGQAVDVVGQAGKPKTITGFQTHTTPVLLAHGERAELATEEFLPVTPILEGFVILRKNPNYDL [PSMD2] | 1.49 | 1.55 | 0.049 | -0.133 | 52.2 | 51.9 |
| MGCTLSAEDKAAVERSKMIDRNLREDGEKAAREVKLLLLGAGESGKSTIVKQMKIIHEAGYSEEECKQYKAVVYSNTIQSIIAIIRAMGRLKIDFGDSARADDARQLFVLAGAAEEGFMTAELAGVIKRLWKDSGVQACFNRSREYQLNDSAAYYLNDLDRIAQPNYIPTQQDVLRTRVKTTGIVETHFTFKDLHFKMFDVGGQRSERKKWIHCFEGVTAIIFCVALSDYDLVLAEDEEMNRMHESMKLFDSICNNKWFTDTSIILFLNKKDLFEEKIKKSPLTICYPEYAGSNTYEEAAAYIQCQFEDLNKRKDTKEIYTHFTCATDTKNVQFVFDAVTDVIIKNNLKDCGLF [GNAI1] | -2.75 | 0.954 | -0.716 | -0.105 | 55.5 | 55.7 |
| MGLLSILRKLKSAPDQEVRILLLGLDNAGKTTLLKQLASEDISHITPTQGFNIKSVQSQGFKLNVWDIGGQRKIRPYWKNYFENTDILIYVIDSADRKRFEETGQELAELLEEEKLSCVPVLIFANKQDLLTAAPASEIAEGLNLHTIRDRVWQIQSCSALTGEGVQDGMNWVCKNVNAKKK [ARL3] | -1.54 | -1.98 | 0.543 | 0.0342 | 53.2 | 54.6 |
| MGLLTILKKMKQKERELRLLMLGLDNAGKTTILKKFNGEDIDTISPTLGFNIKTLEHRGFKLNIWDVGGQKSLRSYWRNYFESTDGLIWVVDSADRQRMQDCQRELQSLLVEERLAGATLLIFANKQDLPGALSSNAIREVLELDSIRSHHWCIQGCSAVTGENLLPGIDWLLDDISSRIFTAD [ARL2] | 1.79 | 1.05 | 0.111 | -0.106 | 53.7 | 53.1 |
| MGNSRSRVGRSFCSQFLPEEQAEIDQLFDALSSDKNSPNVSSKSFSLKALQNHVGEALPPEMVTRLYDGMRRVDLTGKAKGPSENVSQEQFTASMSHLLKGNSEEKSLMIMKMISATEGPVKAREVQKFTEDLVGSVVHVLSHRQELRGWTGKEAPGPNPRVQVLAAQLLSDMKLQDGKRLLGPQWLDYDCDRAVIEDWVFRVPHVAIFLSVVICKGFLILCSSLDLTTLVPERQVDQGRGFESILDVLSVMYINAQLPREQRHRWCLLFSSELHGHSFSQLCGHITHRGPCVAVLEDHDKHVFGGFASCSWEVKPQFQGDNRCFLFSICPSMAVYTHTGYNDHYMYLNHGQQTIPNGLGMGGQHNYFGLWVDVDFGKGHSRAKPTCTTYNSPQLSAQENFQFDKMEVWAVGDPSEEQLAKGNKSILDADPEAQALLEISGHSRHSEGLREVPDDE [TLDC1] | -0.592 | -0.996 | -0.0272 | -0.0768 | 52.4 | 51.6 |
| MGSLKEELLKAIWHAFTALDQDHSGKVSKSQLKVLSHNLCTVLKVPHDPVALEEHFRDDDEGPVSNQGYMPYLNRFILEKVQDNFDKIEFNRMCWTLCVKKNLTKNPLLITEEDAFKIWVIFNFLSEDKYPLIIVSEEIEYLLKKLTEAMGGGWQQEQFEHYKINFDDSKNGLSAWELIELIGNGQFSKGMDRQTVSMAINEVFNELILDVLKQGYMMKKGHRRKNWTERWFVLKPNIISYYVSEDLKDKKGDILLDENCCVESLPDKDGKKCLFLVKCFDKTFEISASDKKKKQEWIQAIHSTIHLLKLGSPPPHKEARQRRKELRKKQLAEQEELERQMKELQAANESKQQELEAVRKKLEEAASRAAEEEKKRLQTQVELQARFSTELEREKLIRQQMEEQVAQKSSELEQYLQRVRELEDMYLKLQEALEDERQARQDEETVRKLQARLLEEESSKRAELEKWHLEQQQAIQTTEAEKQELENQRVLKEQALQEAMEQLEQLELERKQALEQYEEVKKKLEMATNKTKSWKDKVAHHEGLIRLIEPGSKNPHLITNWGPAAFTEAELEEREKNWKEKKTTE [SWAP70] | 0.0893 | -1.39 | 0.0573 | -0.121 | 52.6 | 50.9 |
| MQRADSEQPSKRPRCDDSPRTPSNTPSAEADWSPGLELHPDYKTWGPEQVCSFLRRGGFEEPVLLKNIRENEITGALLPCLDESRFENLGVSSLGERKKLLSYIQRLVQIHVDTMKVINDPIHGHIELHPLLVRIIDTPQFQRLRYIKQLGGGYYVFPGASHNRFEHSLGVGYLAGCLVHALGEKQPELQISERDVLCVQIAGLCHDLGHGPFSHMFDGRFIPLARPEVKWTHEQGSVMMFEHLINSNGIKPVMEQYGLIPEEDICFIKEQIVGPLESPVEDSLWPYKGRPENKSFLYEIVSNKRNGIDVDKWDYFARDCHHLGIQNNFDYKRFIKFARVCEVDNELRICARDKEVGNLYDMFHTRNSLHRRAYQHKVGNIIDTMITDAFLKADDYIEITGAGGKKYRISTAIDDMEAYTKLTDNIFLEILYSTDPKLKDAREILKQIEYRNLFKYVGETQPTGQIKIKREDYESLPKEVASAKPKVLLDVKLKAEDFIVDVINMDYGMQEKNPIDHVSFYCKTAPNRAIRITKNQVSQLLPEKFAEQLIRVYCKKVDRKSLYAARQYFVQWCADRNFTKPQDGDVIAPLITPQKKEWNDSTSVQNPTRLREASKSRVQLFKDDPM [SAMHD1] | -3.29 | -3.81 | 0.193 | -0.0724 | 53.6 | 52.6 |
